In patent US20240043618A1, “ANTIMICROBIAL COMPOSITIONS” (priority 2021, published 2024):

system: Vero E6 cells

Row | Substance | Toxicity (highest dilution of the endpoint titer where full (80-100%) cytotoxicity was observed)
1 | betainized polyethyleneimine-hydrogen chloride [B-PEI-HCl] | None
2 | polyethyleneimine-boric acid [PEI-BA] | 1/100
3 | polyethyleneimine-citric acid [PEI-CA] | 1/100
4 | polyethyleneimine-hydrogen chloride [PEI-HCl] | 1/100
5 | betainized polyethyleneimine-citric acid [B-PEI-CA] | None
6 | betainized polyethyleneimine-boric acid [B-PEI-BA] | None
